What was measured:
Orexin receptor type 2 = Orexin receptor type 2 (Homo sapiens, UniProt O43614); experiment: Binding affinity to human orexin 2 receptor expressed in CHO cells after 3 hrs by radioligand binding assay
Homo sapiens = species on record: Homo sapiens; experiment: Selectivity ratio of IC50 for human orexin 1 receptor Ile408-Val mutant to IC50 for human orexin 2 receptor
Liver microsome [1] = experiment: Bioactivation of compound in rat liver microsomes assessed as AUC of GSH-adduct formation at 10 uM after 60 mins by HRMS analysis relative to labetalol; settings: 1 h
P-glycoprotein [2] = experiment: Permeability of the compound assessed as human p-glycoprotein-mediated permeability ratio from basolateral to apical direction; type: ADME; settings: not told
P-glycoprotein [3] = experiment: Permeability of the compound assessed as rat p-glycoprotein-mediated permeability ratio from basolateral to apical direction; type: ADME; settings: not told
Liver microsome [4] = experiment: Bioactivation of compound in human liver microsomes assessed as AUC of GSH-adduct formation at 10 uM after 60 mins by HRMS analysis relative to labetalol; settings: 1 h

Row | Ratio IC50 (Homo sapiens) | Compound | Ki (Orexin receptor type 2) [nM] | further results
1 | > 208 | Cc1ncc(Cl)c(N2CC[C@@H](C)N(C(=O)c3ccccc3-n3nccn3)CC2)n1 |  | 
2 | > 139 | C[C@@H]1CCN(c2nc(Cl)ncc2C(F)(F)F)CCN1C(=O)c1ccccc1-n1nccn1 | 7.7 | 

Further lines, the compound ahead of its results:

Row | Compound | Ratio IC50 (Homo sapiens) | Ki (Orexin receptor type 2) [nM] | further results
3 | C[C@@H]1CCN(c2ncc(C(F)(F)F)c(Cl)n2)CCN1C(=O)c1ccccc1-n1nccn1 |  | 0.7 | 
4 | Cc1nc(N2CC[C@@H](C)N(C(=O)c3ccccc3-n3nccn3)CC2)ncc1C(F)(F)F |  | 0.5 | 
5 | Cc1cnc(Cl)nc1N1CC[C@@H](C)N(C(=O)c2ccccc2-n2nccn2)CC1 | 62 |  | 
6 | COc1nc(N2CC[C@@H](C)N(C(=O)c3cc(C)ccc3-n3nccn3)CC2)ncc1C(F)(F)F |  | 0.4 | Ratio (Liver microsome [1]): 0.4; efflux ratio (P-glycoprotein [2]): 0.7; efflux ratio (P-glycoprotein [3]): 1.2; Ratio (Liver microsome [4]): 0.5
7 | C[C@@H]1CCN(c2nc(Cl)ncc2Cl)CCN1C(=O)c1ccccc1-n1nccn1 | 128 |  | 
8 | Cc1ncc(C(F)(F)F)c(N2CC[C@@H](C)N(C(=O)c3ccccc3-n3nccn3)CC2)n1 | > 114 |  | 
9 | Cc1ncc(C)c(N2CC[C@@H](C)N(C(=O)c3ccccc3-n3nccn3)CC2)n1 | > 122 | 12 | 
10 | Cc1ccc(-n2nccn2)c(C(=O)N2CCN(c3ncc(Cl)c(C)n3)CC[C@H]2C)c1 |  | 0.6 | 
